Data from article PMC8836147, “Design, Synthesis and Antifungal/Nematicidal Activity of Novel 1,2,4-Oxadiazole Derivatives Containing Amide Fragments” (International Journal of Molecular Sciences, 2022).

Sequences of proteins named here, by UniProt entry; tags and fusion partners are left off. Residues count along the entry.
UniProt A7E8N3, 45-189: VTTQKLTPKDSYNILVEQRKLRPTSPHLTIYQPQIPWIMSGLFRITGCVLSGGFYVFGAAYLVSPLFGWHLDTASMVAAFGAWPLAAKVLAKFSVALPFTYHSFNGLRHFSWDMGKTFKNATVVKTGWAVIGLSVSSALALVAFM
UniProt A7EGE3, 30-301: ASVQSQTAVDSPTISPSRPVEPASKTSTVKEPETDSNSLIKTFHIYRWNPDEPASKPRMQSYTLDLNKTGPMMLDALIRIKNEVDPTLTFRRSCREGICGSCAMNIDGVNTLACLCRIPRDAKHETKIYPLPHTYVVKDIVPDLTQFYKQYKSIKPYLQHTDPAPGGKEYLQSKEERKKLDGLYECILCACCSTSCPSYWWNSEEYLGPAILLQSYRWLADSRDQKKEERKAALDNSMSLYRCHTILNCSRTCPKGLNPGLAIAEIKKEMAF
UniProt A7ELH6, 55-192: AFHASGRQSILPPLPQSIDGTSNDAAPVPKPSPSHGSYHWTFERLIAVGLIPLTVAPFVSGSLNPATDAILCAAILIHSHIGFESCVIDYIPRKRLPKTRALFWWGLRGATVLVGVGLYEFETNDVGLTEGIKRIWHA

Target: S. sclerotiorum SDH (Sclerotinia sclerotiorum, UniProt A7E8N3+A7EGE3+A7ELH6)
Experiment: SDH enzyme activity bioassay (succinate dehydrogenase assay kit)
Assay type: biochemical
Protocol: The succinate dehydrogenase assay kit (Comin, Jiangsu, China) was used to determine the enzyme activity of F15, which was assessed as reported previously. S. sclerotiorum was grown in potato dextrose (PD) medium containing F15 with different concentrations to test the IC50 value of SDH. Fluopyram was used as a positive control. All operations were strictly in accordance with the operating instructions of the SDH assay kit. The absorbance of each treatment on fungal SDH was measured at 600 nm to determine the inhibitory effects of each treatment on fungal SDH.

## O=C(NCCc1ncc(C(F)(F)F)cc1Cl)c1ccccc1C(F)(F)F [Fluopyram, fluopyram, reference compound]
  IC50: 19.9 µM
